System: opioid receptors
Test: Assessment of reduction in intrinsic opioid binding activity by structural analogy
Conditions: predicted by analogy with oxymorphone valine carbamate, structural overlay

SMILES: CO[C@]12CC[C@@]3(C[C@@H]1[C@@](C)(O)C(C)(C)C)[C@H]1Cc4ccc(OC(=O)NC(C(=O)O)C(C)C)c5c4[C@@]3(CCN1CC1CC1)[C@H]2O5 (stereo partly shown)
- opioid binding activity in comparison with the parent drug: much less opioid binding activity

From US20090192095A1 (priority 2008, published 2009)
